From patent US10729680B2, “5-substituted 2-(morpholin-4-yl)-1,7-naphthyridines” (BAYER PHARMA AKTIENGESELLSCHAFT, priority 2016, dated 2020)

Protein sequences, listed by entry. Tags and fused reporters are not part of them. Chains listed by the source or under a name are the forms on record and can include a tag or linker. Residues count along the entry.
UniProt Q13535, 1-2644 with tags or gaps limits assumed: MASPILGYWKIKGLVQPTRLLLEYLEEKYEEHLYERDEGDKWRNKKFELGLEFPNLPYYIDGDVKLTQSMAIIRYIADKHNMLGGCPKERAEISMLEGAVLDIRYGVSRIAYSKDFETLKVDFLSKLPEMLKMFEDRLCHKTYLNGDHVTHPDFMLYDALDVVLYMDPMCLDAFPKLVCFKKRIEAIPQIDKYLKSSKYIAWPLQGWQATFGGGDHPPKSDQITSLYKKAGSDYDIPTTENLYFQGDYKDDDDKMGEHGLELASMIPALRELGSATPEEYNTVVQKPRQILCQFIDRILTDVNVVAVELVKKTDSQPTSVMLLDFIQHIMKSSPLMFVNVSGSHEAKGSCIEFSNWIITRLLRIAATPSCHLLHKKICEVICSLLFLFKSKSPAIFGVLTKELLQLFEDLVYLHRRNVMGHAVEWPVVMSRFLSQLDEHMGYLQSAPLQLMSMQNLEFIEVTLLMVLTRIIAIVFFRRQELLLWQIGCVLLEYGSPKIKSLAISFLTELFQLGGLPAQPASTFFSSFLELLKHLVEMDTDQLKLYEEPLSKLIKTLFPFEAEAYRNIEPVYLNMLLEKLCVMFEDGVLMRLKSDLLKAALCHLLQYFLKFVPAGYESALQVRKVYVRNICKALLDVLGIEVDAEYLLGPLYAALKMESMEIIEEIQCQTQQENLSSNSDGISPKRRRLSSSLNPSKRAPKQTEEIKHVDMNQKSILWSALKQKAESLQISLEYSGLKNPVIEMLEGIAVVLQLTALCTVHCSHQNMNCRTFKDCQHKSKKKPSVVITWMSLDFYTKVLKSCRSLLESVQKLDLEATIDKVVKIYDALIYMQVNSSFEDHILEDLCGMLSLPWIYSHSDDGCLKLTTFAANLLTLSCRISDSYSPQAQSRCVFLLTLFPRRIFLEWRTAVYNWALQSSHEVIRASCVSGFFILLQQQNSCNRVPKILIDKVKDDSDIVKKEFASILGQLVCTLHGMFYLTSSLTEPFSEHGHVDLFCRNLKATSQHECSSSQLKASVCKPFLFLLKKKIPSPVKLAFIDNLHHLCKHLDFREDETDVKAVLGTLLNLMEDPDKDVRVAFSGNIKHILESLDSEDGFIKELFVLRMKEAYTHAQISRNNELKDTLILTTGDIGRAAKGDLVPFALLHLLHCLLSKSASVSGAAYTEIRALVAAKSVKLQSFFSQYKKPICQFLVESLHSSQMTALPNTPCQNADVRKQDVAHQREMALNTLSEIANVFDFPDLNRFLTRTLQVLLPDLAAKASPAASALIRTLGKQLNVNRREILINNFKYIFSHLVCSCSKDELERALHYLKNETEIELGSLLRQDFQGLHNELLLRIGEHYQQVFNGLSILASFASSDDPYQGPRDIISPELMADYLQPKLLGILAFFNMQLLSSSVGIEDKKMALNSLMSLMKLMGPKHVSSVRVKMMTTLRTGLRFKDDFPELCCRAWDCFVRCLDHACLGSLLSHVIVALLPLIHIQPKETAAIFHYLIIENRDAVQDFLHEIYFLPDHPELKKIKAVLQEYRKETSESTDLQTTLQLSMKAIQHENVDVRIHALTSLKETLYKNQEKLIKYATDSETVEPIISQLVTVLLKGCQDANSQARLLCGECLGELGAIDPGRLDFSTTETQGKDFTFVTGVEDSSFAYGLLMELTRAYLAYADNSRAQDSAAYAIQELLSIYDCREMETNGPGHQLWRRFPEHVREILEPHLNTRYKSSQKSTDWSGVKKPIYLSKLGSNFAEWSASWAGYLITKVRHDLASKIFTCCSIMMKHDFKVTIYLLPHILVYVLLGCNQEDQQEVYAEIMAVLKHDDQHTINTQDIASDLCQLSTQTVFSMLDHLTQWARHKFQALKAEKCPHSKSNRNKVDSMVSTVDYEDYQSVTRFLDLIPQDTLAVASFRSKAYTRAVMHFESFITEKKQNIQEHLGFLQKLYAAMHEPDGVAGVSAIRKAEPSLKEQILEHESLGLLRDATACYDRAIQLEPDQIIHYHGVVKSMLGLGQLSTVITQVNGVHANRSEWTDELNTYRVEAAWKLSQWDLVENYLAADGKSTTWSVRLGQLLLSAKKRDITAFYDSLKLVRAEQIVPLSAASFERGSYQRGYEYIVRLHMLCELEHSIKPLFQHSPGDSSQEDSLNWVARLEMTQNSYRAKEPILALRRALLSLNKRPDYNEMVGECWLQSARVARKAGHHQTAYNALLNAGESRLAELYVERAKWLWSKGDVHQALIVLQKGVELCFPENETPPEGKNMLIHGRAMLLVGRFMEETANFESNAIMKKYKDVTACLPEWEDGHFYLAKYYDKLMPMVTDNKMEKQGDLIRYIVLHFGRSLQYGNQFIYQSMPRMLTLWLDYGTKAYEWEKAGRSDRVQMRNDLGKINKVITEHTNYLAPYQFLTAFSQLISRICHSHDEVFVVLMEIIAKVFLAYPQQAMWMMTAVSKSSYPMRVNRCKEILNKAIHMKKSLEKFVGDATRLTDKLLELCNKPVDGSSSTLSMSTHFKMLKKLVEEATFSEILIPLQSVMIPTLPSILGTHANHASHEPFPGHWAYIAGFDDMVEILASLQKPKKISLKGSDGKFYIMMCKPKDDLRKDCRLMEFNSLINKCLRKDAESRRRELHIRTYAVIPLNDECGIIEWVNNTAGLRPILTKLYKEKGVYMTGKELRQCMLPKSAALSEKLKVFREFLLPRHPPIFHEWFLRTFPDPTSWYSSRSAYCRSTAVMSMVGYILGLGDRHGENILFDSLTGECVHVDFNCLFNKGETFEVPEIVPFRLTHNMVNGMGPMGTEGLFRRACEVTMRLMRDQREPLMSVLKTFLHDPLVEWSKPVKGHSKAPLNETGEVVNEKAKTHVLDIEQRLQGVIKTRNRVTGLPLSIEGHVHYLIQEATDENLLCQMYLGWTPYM
UniProt Q8WXE1, 1-791 with tags or gaps partner limits assumed: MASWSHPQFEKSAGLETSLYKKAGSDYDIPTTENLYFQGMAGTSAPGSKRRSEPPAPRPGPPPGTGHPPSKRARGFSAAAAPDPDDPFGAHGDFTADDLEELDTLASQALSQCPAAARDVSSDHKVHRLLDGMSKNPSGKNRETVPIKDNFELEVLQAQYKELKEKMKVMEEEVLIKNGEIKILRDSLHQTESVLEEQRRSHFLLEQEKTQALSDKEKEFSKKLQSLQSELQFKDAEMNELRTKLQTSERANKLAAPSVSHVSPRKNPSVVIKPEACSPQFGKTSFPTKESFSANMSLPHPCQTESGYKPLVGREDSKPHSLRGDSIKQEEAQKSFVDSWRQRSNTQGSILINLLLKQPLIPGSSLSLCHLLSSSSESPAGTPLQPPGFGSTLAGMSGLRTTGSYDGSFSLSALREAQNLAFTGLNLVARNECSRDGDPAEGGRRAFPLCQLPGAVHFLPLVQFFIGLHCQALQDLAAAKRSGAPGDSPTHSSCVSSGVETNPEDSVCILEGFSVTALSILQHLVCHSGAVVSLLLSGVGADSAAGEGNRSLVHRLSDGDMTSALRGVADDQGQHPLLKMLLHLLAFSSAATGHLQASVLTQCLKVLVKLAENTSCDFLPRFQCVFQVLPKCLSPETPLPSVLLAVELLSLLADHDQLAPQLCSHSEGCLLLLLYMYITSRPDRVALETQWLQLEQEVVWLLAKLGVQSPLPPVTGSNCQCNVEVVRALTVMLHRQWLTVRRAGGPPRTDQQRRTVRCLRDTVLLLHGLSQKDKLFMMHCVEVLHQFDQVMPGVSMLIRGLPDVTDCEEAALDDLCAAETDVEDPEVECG

Biological target: full-length human ATR protein (ATR/ATRIP) (Homo sapiens (Human), UniProt Q13535)
Assay: Binding Assay ATR (TR-FRET, tracer A displacement)
Settings: read-out: ATR binding (tracer A) IC50, displacement of fluorescent tracer A from GST-ATR/ATRIP
Source text: To determine of binding activity of the test compounds, full-length human ATR protein was expressed and purified together with ATRIP as described above. Furthermore, a fluorescently labelled compound (tracer A as described above) was used as a tracer molecule. Detection of the binding event of the tracer was achieved by time-resolved fluorescence energy transfer (TR-FRET). We used an anti-GST-Terbium antibody (CisBio) that binds to the GST-tag at the N-terminus of ATR-kinase. Excitation of Terbium with 337 nm light results in emission of fluorescent light with 545 nm. In case a tetrameric complex has formed (antiGST-Tb+GST-ATR+Strp2-ATRIP+tracer), part of the energy will be transferred from the Terbium to the fluorophore that itself emits light of 570 nm. […]
For the assay 50 nl of a 100-fold concentrated solution of the test compound in DMSO was pipetted into a black low volume 384 well microtiter plate (MTP, Greiner Bio-One, Frickenhausen, Germany). […] The measurement of the TR-FRET signal was performed in a standard HTRF-compatible MTP reader instrument (e.g. BMG Pherastar) by recording the fluorescence emissions at 545 nm and 570 nm after excitation at 337-350 nm. The ratio between emission at 570 nm divided by emission at 545 nm was calculated to give the well ratio. […] IC50 values were calculated by a 4 parameter fit using standard software (GraphPad prism or equivalent).

Q: For `Cc1cnc(-c2ccn[nH]2)c2nc(N3CCOC[C@H]3C)cc(-c3cnc4ccccc4c3)c12`, which IC50 is on record?
A: Its IC50 is 33.8 nM.
